From article PMC2682435

Molecular target: Swedish (K670N/M671L) mutant human APP695 (human)
Assay: FRET or BRET

In the case of “Presenilin 1 (PS1), endogenous in CHO cells (from UniProt G3HNF2 1-467) (natural protein)”, the Alexa 488 donor lifetime (FLIM), cells with N-cadherin is reported as 1640 ps, the Alexa 488 donor lifetime (FLIM), cells without N-cadherin is reported as 1790 ps and the Alexa 488 donor lifetime (FLIM), with control IgG is reported as 1680 ps.
